# Literature values, collected in paper PMC6402191 (Clinical and Translational Science, 2017).
# Settings: ref 22 (probenecid), 23 (ibuprofen); cited from earlier work
smiles,measurement,value
CCCN(CCC)S(=O)(=O)c1ccc(C(=O)O)cc1 [Probenecid],ka (first-order absorption rate constant),0.56 h^‐1
